Values quoted from earlier work in patent publication US6444477B1, “Assay method for detecting 5-HT2B antagonists” (Pharmagene Laboratories Limited, priority 2000, dated 2002).

Amino acid sequences for entries named in this document (tags omitted).
UniProt P41595, whole entry: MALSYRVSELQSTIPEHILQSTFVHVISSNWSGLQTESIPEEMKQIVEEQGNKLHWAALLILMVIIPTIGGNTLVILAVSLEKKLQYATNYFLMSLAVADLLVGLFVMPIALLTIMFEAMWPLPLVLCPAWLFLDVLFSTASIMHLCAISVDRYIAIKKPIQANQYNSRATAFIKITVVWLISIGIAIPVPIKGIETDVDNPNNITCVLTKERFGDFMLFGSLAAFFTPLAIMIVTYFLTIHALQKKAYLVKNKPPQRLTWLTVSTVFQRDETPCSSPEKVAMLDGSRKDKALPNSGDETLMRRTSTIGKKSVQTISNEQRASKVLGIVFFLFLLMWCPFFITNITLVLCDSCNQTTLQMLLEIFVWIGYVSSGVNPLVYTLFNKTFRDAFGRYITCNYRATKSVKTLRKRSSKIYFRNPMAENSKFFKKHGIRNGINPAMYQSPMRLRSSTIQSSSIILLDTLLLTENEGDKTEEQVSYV

Biological target: 5-HT2B receptor (Homo sapiens, UniProt P41595)
Conditions: cited from earlier work

SMILES: CSc1ccc2c(c1)C(N1CCN(C)CC1)Cc1ccccc1S2 (stereo not shown)
- affinity from binding data (#) at human 5-HT2B receptor: 8.1^#
